Measurements: PubChem BioAssay AID651702 (NMMLSC, 2012)
Only a part is listed here, and it is no random draw. Some salts and complexes are drawn in separate pieces, as the source files them; their charges need not balance. Activity calls are given as the source filed them.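 Rule for the calls: active = inhibition above about 55% (limit read from the data); inconclusive = no clear call, values can overlap the other calls; inactive = the rest.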

Test: LAMP-1 surface exposure blockers, TALL-104 cells – cell-based, flow cytometry, MLPCN library, primary screen (AID 651702)
Settings: TALL-104 LAMP-1 surface exposure, at 10 µM, active compounds read high, cells stimulated with thapsigargin and PMA

Compound	inhibition
COc1ccccc1-c1ccccn1.O=[N+]([O-])c1cc([N+](=O)[O-])c(O)c([N+](=O)[O-])c1	inactive: 0.1%
CCN(CC)CCCOC(=O)C(O)(c1ccccc1)c1ccccc1	inactive: 2.2%
Cc1ccc(NP(C)(=O)Oc2ccccc2)c(C)c1 (centres undefined)	inactive: 1.8%
COc1ccccc1OP(C)(=O)Nc1ccc(C)cc1 (centres undefined)	inactive: -4%
CCOC(=O)c1ccc(NP(C)(=O)Oc2ccccc2)cc1 (centres undefined)	inactive: -5.3%
Cc1cc(C)cc(OP(C)(N)=O)c1 (centres undefined)	inactive: 2.9%
COc1ccc(OP(C)(=O)Nc2cccc(F)c2)cc1 (centres undefined)	inactive: -1.5%
COc1ccccc1OP(C)(=O)Nc1cc(Cl)ccc1C (centres undefined)	inactive: 8.9%
O=[N+]([O-])c1cc([N+](=O)[O-])c(Nc2cccnc2)c([N+](=O)[O-])c1	inactive: 7.7%
O=[N+]([O-])c1ccc2c(c1)C=Nc1ccccc1O2	inactive: -1.9%
Cc1cccc(C)c1OP(C)(N)=O (centres undefined)	inactive: 0.5%
CC(C)(C)c1ccc(OP(C)(=O)Nc2ccc(SC(F)(F)F)cc2)cc1 (centres undefined)	inactive: -5.4%
CP(=S)(Nn1cnnc1)Oc1ccccc1 (centres undefined)	inactive: -1.6%
CP(=O)(Nc1ccccc1Br)Oc1ccccc1 (centres undefined)	inactive: -1.4%
COc1ccccc1OP(C)(=O)Nc1ccccc1 (centres undefined)	inactive: -5.5%
O=[N+]([O-])c1cc([N+](=O)[O-])c(O)c([N+](=O)[O-])c1.c1ccc(Oc2ccncc2)cc1	inactive: 2.1%
CCOC(=O)c1ccc(NP(C)(=O)Oc2ccc(OC)cc2)cc1 (centres undefined)	inactive: -4.1%
CCOP(C)(=S)SCC(=O)NC(C)C(=O)O (centres undefined)	inactive: 8.2%
CP(=O)(Nc1ccccn1)Oc1ccc(Cl)cc1 (centres undefined)	inactive: 3.5%
CP(=O)(Oc1ccccc1)OC(c1ccccc1)C(F)(F)F (centres undefined)	inactive: 0.3%
CP(=O)(Nc1ccc(SC(F)(F)F)cc1)Oc1ccc(Cl)cc1 (centres undefined)	inactive: 7.3%
Cc1cccc(C)c1OP(C)(=O)Nc1ccc(SC(F)(F)F)cc1 (centres undefined)	inactive: -0.5%
Cc1ccc(Nc2c([N+](=O)[O-])cc([N+](=O)[O-])cc2[N+](=O)[O-])cc1	inactive: 0.4%
Cc1cc(C)cc(OP(C)(=O)Nc2ccc(SC(F)(F)F)cc2)c1 (centres undefined)	inactive: -1.1%
CCc1ccc(OP(C)(=O)N2CCN(c3ccc([N+](=O)[O-])cc3)CC2)cc1 (centres undefined)	inactive: 39.5%

Compound	inhibition
CP(=O)(NC(=O)Nc1ccccc1)Oc1ccccc1 (centres undefined)	inactive: -4.2%
O=[N+]([O-])c1cc([N+](=O)[O-])c(-c2cnn(-c3ccccc3)c2)c([N+](=O)[O-])c1	inactive: 23.2%
Cc1nc2ccc3ccccc3c2s1.O=[N+]([O-])c1cc([N+](=O)[O-])c(O)c([N+](=O)[O-])c1	inactive: 1%
O=[N+]([O-])c1cc([N+](=O)[O-])c(-n2nnc3ccccc32)c([N+](=O)[O-])c1	inactive: -3.7%
CN(Cc1cccnc1)C(=O)COc1ccc(Cl)c(Cl)c1.O=[N+]([O-])c1cc([N+](=O)[O-])c(O)c([N+](=O)[O-])c1	inactive: -5.2%
CN1CCCCC1COC(=O)C1(O)c2ccccc2CCc2ccccc21 (centres undefined)	inactive: 2.4%
COc1ccccc1OP(C)(=O)Nc1c(C)cccc1C (centres undefined)	inactive: -2.7%
COc1ccc(-c2ccccn2)cc1.O=[N+]([O-])c1cc([N+](=O)[O-])c(O)c([N+](=O)[O-])c1	inactive: -8.7%
CP(=O)(Nc1ccc(SC(F)(F)F)cc1)Oc1ccccc1 (centres undefined)	inactive: 3.4%
CCCOc1ccc(NP(C)(=O)Oc2ccc(Cl)cc2)cc1 (centres undefined)	inactive: -2.4%
CCOC(=O)C(CC)C1=NC(C)(C)Cc2ccccc21.O=[N+]([O-])c1cc([N+](=O)[O-])c(O)c([N+](=O)[O-])c1 (centres undefined)	inactive: -1.1%
O=[N+]([O-])c1cc([N+](=O)[O-])c(Nc2nnnn2CCO)c([N+](=O)[O-])c1	inactive: 3.7%
CC1=C2N=C(C=C3N=C(C(C)=C4[N-][C@@](C)([C@@H]5N=C1[C@](C)(CCC(=O)NC[C@@H](C)OP(=O)([O-])O[C@H]1[C@@H](O)[C@@H](n6cnc7cc(C)c(C)cc76)O[C@@H]1CO)[C@H]5CC(N)=O)[C@@](C)(CC(N)=O)[C@@H]4CCC(N)=O)[C@@](C)(CC(N)=O)[C@@H]3CCC(N)=O)C(C)(C)[C@@H]2CCC(N)=O.[C-]#N.[Co+3]	inactive: -0.7%
CC1=NCCc2c1[nH]c1ccccc21.O=[N+]([O-])c1cc([N+](=O)[O-])c(O)c([N+](=O)[O-])c1	inactive: -1.2%
O=C(O)c1cccc(Nc2c([N+](=O)[O-])cc([N+](=O)[O-])cc2[N+](=O)[O-])c1	inactive: -1.7%
Cc1ccc(C)c(NP(C)(=O)Oc2ccccc2)c1 (centres undefined)	inactive: -3%
CP(=O)(Nc1cccc(Br)c1)Oc1ccccc1 (centres undefined)	inactive: -6.9%
Cc1cc(C)cc(OP(C)(=O)Nc2ccccn2)c1 (centres undefined)	inactive: 0.3%
COc1ccccc1OP(C)(=O)Nc1cccc(Br)c1 (centres undefined)	inactive: -1%
CCOC(=O)c1ccc(NP(C)(=O)Oc2cc(C)cc(C)c2)cc1 (centres undefined)	inactive: -2.9%
Cc1cc(C)cc(OP(C)(=O)Nc2ccc(C)cc2C)c1 (centres undefined)	inactive: -1.7%
O=C(OC1CN2CCC1CC2)c1ccc([N+](=O)[O-])cc1 (centres undefined)	inactive: 10.1%
O=C(OCCN1CCN(CCOCc2ccccc2)CC1)C(O)(c1ccccc1)c1ccccc1	inactive: -2.8%
COc1ccc2c(c1O)-c1c(O)c(OC)cc3c1[C@H](C2)[N+](C)(C)CC3.O=[N+]([O-])c1cc([N+](=O)[O-])c([O-])c([N+](=O)[O-])c1[O-]	inactive: 11.6%
